Inhibition data for 45 compounds are collected here from PubChem BioAssay AID651582 (Sanford-Burnham Center for Chemical Genomics, 2012).

This is a selection; strong and weak results do not stand in their true shares. Calls of active or inactive are those of the source.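 Rule for the calls: active = pattern-corrected inhibition of lipid staining of at least 50% with the nuclear-stain viability signal not falling by more than 50%; inactive = the rest, inconclusive results apart.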

The test is described as follows: inhibitors of triacylglycerol accumulation, primary screen, cell-based, uHTS, fluorescence, H9c2 (AID 651582).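 Note: 0% = DMSO wells and 100% = triacsin C control wells.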 The conditions noted are these: H9c2 cells, Nile Red lipid (TAG) fluorescence; at 12.5 µM; stronger effect = higher value; cells loaded with 200 µM oleic acid.
What is called inhibition is the drop in the measured response relative to a control, in per cent. Consider `Cc1ccc(C(=O)NCC2(N(C)C)CCCCC2)o1`, for which the inhibition is inactive: -3.78%.
Under `O=C(NCC1(N2CCCCC2)CCCCC1)c1cncc(Br)c1` stands inactive: 22.8%; under `O=C(NCC1(N2CCOCC2)CCCCC1)c1cc(F)c(F)cc1Cl`, inactive: -2.13%.
Under `CN(C)c1cccc(C(=O)NCC2(N3CCCCC3)CCCCC2)c1` stands inactive: 0.506%.
Under `COc1ccc(CN(CCCl)CCCl)cc1Cl` stands inactive: -12%; under `CC(C)c1ccc(NC2CCN(C(=O)OC(C)(C)C)CC2)cc1`, inactive: -15.9%; under `CC(C)c1ccc(C(=O)NCC2(N3CCOCC3)CCCCC2)cc1`, inactive: 4.97%.
For the compound `COc1ccc(NC2CCN(C(=O)OC(C)(C)C)CC2)cc1`, the inhibition was inactive: 5.71%.
Next, `O=C(NCC1(N2CCOCC2)CCCCC1)c1cc(=O)[nH]c2ccccc12`: inactive: -2.78%; `O=C(NCC1(N2CCCCC2)CCCCC1)c1cccc([N+](=O)[O-])c1`: inactive: -1.43%.
Under `CSc1ccc(C(=O)NCC2(N3CCOCC3)CCCCC2)cc1` stands inactive: -0.442%.
As to `N#CC1(Nc2ccccc2)CCN(CCc2ccccc2)CC1`, the inhibition was inactive: 9.73%.
Under `CCOC(=O)N1CCC(Nc2ccc(F)cc2)CC1` stands inactive: 2.26%.
Under `O=P1(N(CCCl)CCCl)SCCCS1` stands inactive: -17.4%.
Regarding `CCCCOc1ccc(C(=O)NCC2(N3CCOCC3)CCCCC2)cc1`, the inhibition was inactive: -3.99%.
Next, `CCOc1ccc(C)cc1CN(CCCl)CCCl`: inactive: -1.08%.
Under `COc1ccc(Cl)cc1C(=O)NCC1(N2CCOCC2)CCCCC1` stands inactive: -5.69%; under `O=C(NCC1(N2CCCCC2)CCCCC1)c1ccc(Cl)s1`, inactive: 5.93%; under `N#CC1(Nc2ccccc2)CCN(Cc2ccccc2)CC1`, inactive: 6.13%.
Next, `O=C(NCC1(N2CCOCC2)CCCCC1)c1cc2ccccc2o1`: inactive: -4.78%.
As for `O=C(NCC1(N2CCCCC2)CCCCC1)c1ccc(Cl)nc1`, the inhibition was inactive: -5.73%.
Next, `Cc1cccc(NC2(C#N)CCN(Cc3ccccc3)CC2)c1`: inactive: 0.183%; `O=C(NCC1(N2CCCCC2)CCCCC1)c1cccs1`: inactive: 4.65%.
Under `O=C(NCC1(N2CCCCC2)CCCCC1)c1ccc(=O)[nH]c1` stands inactive: -8.22%.
Under `COc1ccc(C(=O)NCC2(N3CCCCC3)CCCCC2)c(OC)c1OC` stands inactive: -0.395%.
For the compound `CN1CCC(Nc2ccc(Cl)cc2)CC1`, the inhibition is inactive: 13.3%.
Next, `CCC(CO)(C(=O)OC1CN2CCC1CC2)c1ccccc1` (stereo not given): inactive: 4.36%; `COc1cc(OC)cc(C(=O)NCC2(N3CCOCC3)CCCCC2)c1`: inactive: 2.93%; `CC(C)(C)OC(=O)N1CCC(Nc2ccccc2)CC1`: inactive: -41.1%.
As for `CN1CCC(Nc2ccc(F)c(Cl)c2)CC1`, the inhibition is inactive: 7.63%.
For the compound `CN(C)c1ccc(C(=O)NCC2(N3CCCCC3)CCCCC2)cc1`, the inhibition was inactive: -8.94%.
Under `Cn1c(=O)[nH]cc(N(CCCl)CCCl)c1=O` stands inactive: 4.31%; under `O=C(NCC1(N2CCCCC2)CCCCC1)c1ccco1`, inactive: 7.33%; under `Cc1ccccc1NC1(C#N)CCN(Cc2ccccc2)CC1`, inactive: -20.7%.
Next, `Cc1ccc(NC2(C#N)CCN(Cc3ccccc3)CC2)cc1`: inactive: 3.81%; `Cc1ccc(C(=O)NCC2(N3CCCCC3)CCCCC2)o1`: inactive: -7.2%.
Consider `CC(=O)N(c1ccccc1)C1CCNCC1`, for which the inhibition was inactive: -8%.
Next, `Cc1cc(N(CCCl)CCCl)ccc1C=O`: inactive: 9.46%.
Under `CCCN1CCC(Nc2cc(OC)cc(OC)c2)CC1` stands inactive: 9.3%; under `c1ccc(CN2CCC(Nc3ccccc3)CC2)cc1`, inactive: -17.3%.
`N#Cc1ccc(C(=O)NCC2(N3CCCCC3)CCCCC2)cc1`: the inhibition was inactive: -2.61%.
Next, `N/C(=N\O)c1c(N)no[n+]1[O-]`: inactive: 8%; `COc1ccc(C(=O)NCC2(N3CCOCC3)CCCCC2)cc1OC`: inactive: 13.6%.
Under `O=C(NCC1(N2CCOCC2)CCCCC1)c1cc(Br)ccc1Cl` stands inactive: -9.11%.
`COc1cc(C(=O)NCC2(N3CCOCC3)CCCCC2)cc(OC)c1C`: the inhibition is inactive: -6.97%.
